Earlier results as cited in patent publication US20060160897A1, “Topical Use of Valproic Acid for the Prevention or Treatment of Skin Disorders” (priority 2003, published 2006).

Settings: metastatic renal cell carcinoma, 60/329 patients; cited from earlier work

interleukin 2: cytokine secreted by activated T cells, used in therapy of melanoma and renal cell carcinoma
patients with antithyroid antibodies detected: 18%
